Source: paper PMC3390922 (The Journal of Neuroscience, 2010)

Amino acid sequences for entries named in this document (tags omitted).
UniProt Q61327, whole entry: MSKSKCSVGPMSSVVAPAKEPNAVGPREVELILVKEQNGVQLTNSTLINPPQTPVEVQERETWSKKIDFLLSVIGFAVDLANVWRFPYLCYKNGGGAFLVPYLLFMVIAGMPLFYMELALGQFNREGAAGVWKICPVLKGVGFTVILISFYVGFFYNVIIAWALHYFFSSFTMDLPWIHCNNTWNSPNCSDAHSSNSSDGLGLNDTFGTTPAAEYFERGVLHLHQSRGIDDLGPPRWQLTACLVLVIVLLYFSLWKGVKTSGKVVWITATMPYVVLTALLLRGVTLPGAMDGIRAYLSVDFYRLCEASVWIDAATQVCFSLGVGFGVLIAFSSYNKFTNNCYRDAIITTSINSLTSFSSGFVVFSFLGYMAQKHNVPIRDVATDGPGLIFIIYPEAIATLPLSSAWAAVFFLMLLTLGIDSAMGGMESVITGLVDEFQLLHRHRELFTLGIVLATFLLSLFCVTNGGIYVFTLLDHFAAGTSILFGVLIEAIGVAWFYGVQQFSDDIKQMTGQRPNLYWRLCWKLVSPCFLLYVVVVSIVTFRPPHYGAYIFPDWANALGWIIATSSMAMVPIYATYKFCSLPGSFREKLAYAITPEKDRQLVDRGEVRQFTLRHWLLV

Molecular target: dopamine transporter (DAT) (Mus musculus, UniProt Q61327)
Assay: biochemical
Assay type: binding

SMILES: OC1(c2ccc(Cl)cc2)c2ccccc2C2=NCCN21 (stereo not shown) [[^3H]-mazindol]
- Kd: ~25 nM
